In US10334859B2, “Method and pesticidal mixtures for controlling Pentatomidae pests” (BASF SE, priority 2014, dated 2019) one finds Observed efficacy data, which are given here for five molecules.

The test system of test [1] is tobacco budworm (Heliothis virescens). The note with it: 400 ppm; egg and larval mortality after 5 days.
For test [2], the system named is boll weevil (Anthonomus grandis). The note with it: egg and larval mortality after 5 days.
Test [3] deals with Mediterranean fruitfly (Ceratitis capitata). To be noted: 160 ppm; egg and larval mortality after 5 days.

Like-named read-outs stand apart in the source and are kept apart here.

On to `CC(C)(C)[C@]1(O)C[C@@H]2OC(=O)C[C@@]23C(=O)O[C@@H]2OC(=O)[C@H](O)[C@]213` [Bilobalide, (3aS,5aR,8aS,9R,10aR)-9-tert-butyl-8,9-dihydroxydihydro-9H-furo[2,3-b]furo[3′,2′;2,3]cyclopenta[1,2-c]furan-2,4,7(3H,8H)-trione], for which the Observed efficacy in test [1] is on record as 0%; in test [2] (64 ppm), 25%; in test [2] (160 ppm), 0%; in test [3], 0%. `CN/C(=N/CC1CCOC1)N[N+](=O)[O-]` (stereo not drawn) [Dinotefuran, dinotefuran] registered an Observed efficacy in test [2] (0.08 ppm) of 0%.

On to `C[C@@H]1C(=O)O[C@H]2C[C@@]34[C@H]5C[C@@H](C(C)(C)C)[C@]36[C@@H](OC(=O)[C@@H]6O)O[C@@]4(C(=O)O5)[C@]21O` [Ginkgolide A], for which, in test [2] (20 ppm), the Observed efficacy is 0%. In test [2] (0.003 ppm), abamectin returned an Observed efficacy of 0%. As for imidacloprid, the Observed efficacy is 25% in test [2] (0.8 ppm) and 0% in test [2] (0.8 ppm, listed as Imicacloprid).
